Assays:
[1] = Equilibrium dialysis, free fraction in plasma; details: 10 μg g−1, 5 h dialysis at 37 °C
MRC5 cells = experiment: Resazurin cell viability counter-screen, EC50 determinations against mammalian cells; assay type: cell-based; details: fold-specificity for T. brucei over human fibroblasts (MRC5)

CN(C(=O)Cc1ccc(Cl)c(Cl)c1)[C@@H]1CCCC[C@H]1N1CCCC1
Fraction unbound in mouse plasma [1]: 0.69

(±) trans-U-50488 methanesulfonate
Selectivity (MRC5 cells): 230

— article PMC3025325, “Identification of a κ-opioid agonist as a potent and selective lead for drug development against human African trypanosomiasis” (Biochemical Pharmacology, 2010)
